Test results as given in paper PMC12142581.

Protein sequences, listed by entry. Tags and fused reporters are not part of them.
UniProt P08485, whole entry, looked up: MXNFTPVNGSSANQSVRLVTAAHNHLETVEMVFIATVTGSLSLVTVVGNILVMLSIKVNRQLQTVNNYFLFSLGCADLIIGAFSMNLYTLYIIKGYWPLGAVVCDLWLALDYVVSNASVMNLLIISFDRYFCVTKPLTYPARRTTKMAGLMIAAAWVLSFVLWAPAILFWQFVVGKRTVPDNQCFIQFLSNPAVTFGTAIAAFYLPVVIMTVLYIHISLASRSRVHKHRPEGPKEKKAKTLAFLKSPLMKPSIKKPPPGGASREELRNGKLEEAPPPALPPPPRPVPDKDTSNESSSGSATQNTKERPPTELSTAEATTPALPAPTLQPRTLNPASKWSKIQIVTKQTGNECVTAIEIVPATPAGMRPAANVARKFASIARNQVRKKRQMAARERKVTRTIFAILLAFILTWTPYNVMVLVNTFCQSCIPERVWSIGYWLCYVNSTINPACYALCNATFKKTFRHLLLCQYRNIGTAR
UniProt P08173, whole entry, looked up: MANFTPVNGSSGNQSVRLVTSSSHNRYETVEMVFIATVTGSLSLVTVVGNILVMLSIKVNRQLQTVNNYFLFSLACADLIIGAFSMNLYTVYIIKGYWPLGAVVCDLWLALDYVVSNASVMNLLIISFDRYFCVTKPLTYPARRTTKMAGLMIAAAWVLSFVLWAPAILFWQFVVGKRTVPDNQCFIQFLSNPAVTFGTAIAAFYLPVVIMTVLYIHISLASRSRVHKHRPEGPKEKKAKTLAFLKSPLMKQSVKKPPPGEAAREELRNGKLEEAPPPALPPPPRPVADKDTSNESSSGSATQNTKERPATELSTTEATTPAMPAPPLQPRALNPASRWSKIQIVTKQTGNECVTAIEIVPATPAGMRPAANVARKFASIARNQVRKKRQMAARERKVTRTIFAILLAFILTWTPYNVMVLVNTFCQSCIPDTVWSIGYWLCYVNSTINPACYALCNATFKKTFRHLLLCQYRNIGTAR

Experiments:
rat M4 [1] = molecular target: T1, rat M4 (Rattus norvegicus, UniProt P08485); details: read-out: rM4 PAM EC50; previously reported; cited from earlier work
[2] = Intrinsic clearance in liver microsomes (substrate depletion); details: for CLint, human / CLint, rat: microsomes; for CLhep, human / CLhep, rat: predicted from microsomal CLint
human M4 (hM4) = human M4 (hM4) (Homo sapiens, UniProt P08173); assay: Calcium mobilization assay, hM4/Gqi5-CHO cells, EC20 acetylcholine; details: for %AChMax: normalized to 100 μM acetylcholine; for EC50: read-out: hM4 EC50, PAM, EC20 ACh
[3] = Binding in plasma, equilibrium dialysis; details: fraction unbound
[4] = Rat IV plasma:brain level (PBL) cassette; details: SD rat, 0.2 mg/kg IV, 0.25 h
[5] = previously reported; cited from earlier work
[6] = previously reported; cited from earlier work; remark: listed apart in the source
[7] = Binding in brain homogenate, equilibrium dialysis; details: fraction unbound
[8] = Multi-species hepatocyte MetID; details: 10 µM parent, 4 h
rat M4 [9] = molecular target: T1, rat M4; assay: Calcium mobilization assay, CHO cells, EC20 acetylcholine
[10] = test system: conditioned avoidance response; assay: Conditioned avoidance response (CAR); details: compound alone
[11] = dog; previously reported; cited from earlier work
[12] = TID; previously reported; cited from earlier work
[13] = test system: amphetamine-induced hyperlocomotion; details: rat; previously reported; cited from earlier work

SMILES | EC50 (rat M4 [1]) [nM] | CLint, human [2] [mL/min/kg] | CLint, rat [2] [mL/min/kg] | CLhep, human [2] | CLhep, rat [2] | %AChMax (human M4 (hM4)) [% AChMax] | human fu,plasma [3] | Kp,brain:plasma [4] | Kp,uu,brain:plasma [4] | hM4 pEC50 (human M4 (hM4)) | rat fu,plasma [3] | rat fu,brain [7] | also measured
Cc1nc2oc3c(NC4CC4)ncnc3c2c(C)c1Cl | 589 | – | – | – | – | – | – | – | – | – | – | – | –
Cc1nnc2sc3c(N4CCCC4)ncnc3c2c1C | – | 423 | 471 | > 15 mL/min/kg and 20 mL/min/kg | > 56 mL/min/kg and 61 mL/min/kg | 68 | 0.06 | 3.19 | 1.94 | – | – | – | –
Cc1cc(C)c2c(n1)sc1c(N3CC4(COC4)C3)ncnc12 | 299 | – | – | – | – | – | – | – | – | – | – | – | rat CLhep [5]: 63 mL/min/kg; human CLhep [6]: 18 mL/min/kg
Cc1nnc2sc3c(NCc4ccc(C(C)(C)O)cc4)nccc3c2c1C | – | 40 | 224 | 14 mL/min/kg | 53 mL/min/kg | 98 | 0.008 | 0.4 | 0.73 | 7.66 | 0.012 | 0.022 | –
Cc1nnc2sc3c(NCc4ccc(C(C)(O)CO)cc4)ncnc3c2c1C (stereo not drawn) | – | – | – | – | – | – | – | – | – | – | – | – | EC50 (human M4 (hM4)): 69 nM; % Total Peak Area (MS) ([8]; human hepatocytes): 7.89% and 7.9%; % Total Peak Area (MS) ([8]; minipig hepatocytes): 14%; % Total Peak Area (MS) ([8]; monkey hepatocytes): 3.22% and 3.2%; EC50 (rat M4 [9]): 32 nM
Cc1nc2n(c(=O)c1CCN1CCC(c3noc4cc(F)ccc34)CC1)CCCC2 | – | – | – | – | – | – | – | – | – | – | – | – | effect on avoidance and escape responses [10]: disrupted avoidance responses while maintaining their escape response
Cc1nnc2sc3c(NCc4ccc(C(=O)NC5CC(F)C5)cc4)ncnc3c2c1C (stereo not drawn) | – | 42 | 66 | 14 mL/min/kg | 34 mL/min/kg | 96 | 0.009 | 0.02 | 0.04 | 7.58 | 0.008 | 0.019 | –
Cc1nnc2sc3c(C4CCCCC4)ncnc3c2c1C | – | 188 | 801 | > 15 mL/min/kg and 19 mL/min/kg | > 56 mL/min/kg and 64 mL/min/kg | 73 | 0.008 | 4.02 | 0.4 | 7.29 | 0.04 | 0.004 | EC50 (human M4 (hM4)): < 75 nM and 51.6 nM; fold more potent (hM4) (human M4 (hM4); vs 13f): 2.3 fold
Cc1nc(C)c2c(n1)sc1c(NCc3ccc(C(C)(C)O)cc3)nccc12 | 42 | – | – | – | – | – | – | – | – | – | – | – | % F [11]: 25%; CLp [11]: 24 mL/min/kg
COc1ccc(CNC(=O)c2sc3nnc(C)c(C)c3c2N)cc1F | 27 | – | – | – | – | – | – | – | – | – | – | – | Predicted human dose projection [12]: > 450 mg; MED, AHL [13]: 10 mg/kg
Cc1nnc2sc3c(NC4CN(c5ncc(F)cn5)C4)ncnc3c2c1C | – | 33 | 60 | 13 mL/min/kg | 32 mL/min/kg | 74 | 0.067 | 0.37 | 0.4 | 7.56 | 0.029 | 0.031 | –
COc1ccc(CNc2nccc3c2sc2nnc(C)c(C)c23)cc1F | – | 156 | 699 | > 15 mL/min/kg and 19 mL/min/kg | > 56 mL/min/kg and 64 mL/min/kg | 89 | 0.006 | BLQ | BLQ | 7.53 | 0.006 | 0.007 | –

Where “and” joins values, the source holds several entries; their conditions need not be identical. Equal values may be shown once. Read-outs that look alike come from different tables or passages of the source.
